Test results as given in US5288709A, “Erythromycin derivatives” (priority 1991, dated 1994).

Experiment: in vivo
Settings: dog, po, 10 mg/kg, t1/2 (biological half life), microbiological assay

## CC[C@H]1OC(=O)[C@H](C)[C@@H](O[C@H]2C[C@@](C)(OC)[C@@H](O)[C@H](C)O2)[C@H](C)[C@@H](O[C@@H]2O[C@H](C)C[C@H](N(C)C)[C@H]2O)[C@](C)(O)C[C@@H](C)C(=O)[C@H](C)[C@@H](O)[C@]1(C)O [Std, Erythromycin A, reference compound]
  half-life: 2 h
